Species: Cricetulus griseus
Assay: Evaluated for hypersensitivity factor (HF) (HF = IC50 AA8 / IC50 UV-4) values are intra experiment ratios
Format: functional

Cc1cccc(N(CCCl)CCCl)c1
Ratio: 50

— ChEMBL document CHEMBL1124922 (J Med Chem, 1990)
